Measurements published in patent publication US9718808B2, “Inhibitors of the renal outer medullary potassium channel” (Merck Sharp & Dohme Corp., priority 2014, dated 2017).

By UniProt entry, the sequences of proteins in these tests, tags left out. Where a name states a change or a piece, a line headed by the entry shows the natural chain unless it says otherwise.
UniProt P48048: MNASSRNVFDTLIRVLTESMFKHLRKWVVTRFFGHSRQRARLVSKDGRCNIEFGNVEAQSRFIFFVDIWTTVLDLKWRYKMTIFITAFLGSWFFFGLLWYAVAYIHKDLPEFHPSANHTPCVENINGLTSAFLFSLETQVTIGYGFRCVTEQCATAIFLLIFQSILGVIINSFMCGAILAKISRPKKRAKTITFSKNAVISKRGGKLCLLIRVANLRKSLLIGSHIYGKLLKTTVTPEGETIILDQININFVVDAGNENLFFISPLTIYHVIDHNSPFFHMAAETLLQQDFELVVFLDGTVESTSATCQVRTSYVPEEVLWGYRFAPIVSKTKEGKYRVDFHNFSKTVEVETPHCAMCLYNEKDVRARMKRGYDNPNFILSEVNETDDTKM

These compounds were tested against ROMK (Kir1.1) channel (Homo sapiens (Human), UniProt P48048) (assay: Thallium Flux Assay).
Type: cell-based
Description: A Thallium Flux Assay was performed on each of the final product compounds of the Examples. This assay has been described previously; see, e.g., PCT Published Application WO 2013/062900.

`CC1=C(N2C(=O)[C@]3(CC[C@@H](NCc4ccc5c(c4)Cn4nnnc4-5)CC3)C[C@@H]2C)COC1=O` [Example 58, (3S,5s,8R)-8-(((5H-tetrazolo[5,1-a]isoindol-7-yl)methyl)amino)-3-methyl-2-(4-methyl-5-oxo-2,5-dihydrofuran-3-yl)-2-azaspiro[4.5]decan-1-one] was tested. Which IC50 did it give?
Its IC50 is 180 nM.

`CC1=C(N2CC[C@]3(CC[C@@H](NCc4ccc(-n5ncnn5)nc4)CC3)C2=O)COC1=O` [Example 76] was tested. Which IC50 did it give?
The IC50 was 180 nM.

How did the IC50 turn out when `CC1=C(N2CC[C@]3(CC[C@H](N(C)Cc4ccc5c(c4C)Cn4nnnc4-5)CC3)C2=O)COC1=O` [Example 97] was run?
The IC50 was 170 nM.
